# Source: patent publication US20240216311A1, “FULLY-DILUTABLE, SELF-MICROEMULSIFYING DELIVERY SYSTEMS (SMEDDS) FOR POORLY WATER-SOLUBLE POLAR SOLUTES” (THE GOVERNING COUNCIL OF THE UNIVERSITY OF TORONTO, priority 2020, published 2024)
# Assays:
# [1] = adapted from [21]; cited from earlier work
# [2] = Characteristic curvature (Cc) by salinity phase scans with reference surfactant C9E5; type: physicochemical; settings: polar oil in mixtures with C9E5; heptane (cyclohexane for CBD) as oil
# Experimental: The characteristic curvature (Cc) of the candidate hydrophilic linker with extremely negative Cc (Cc<−5) was determined following the mixed reference and test surfactant method used by Zarate et al.. […] The salinity phase scans were conducted by vortex-mixing 2 mL of the aqueous surfactant solution, containing a set value of sodium chloride (g NaCl/100 mL of aqueous surfactant solution or % w/v NaCl) with 2 mL of n-heptane at room temperature in 2-dram vials sealed with a silicone-lined cap. […] The difference between the initial volume added to the vial (2 mL), and the excess phase volume was considered the volume solubilized. The ratio between the volume solubilized (in mL) and the total mass of surfactant mixture (0.2 g) was reported as the solubilization parameter (SP) for the given phase at the set salinity.
# [3] = from Drugbank; nonylphenol from ChemSpider; cited from earlier work
Substance,L [1],dS*/dx [2],Aqueous solubility [3],vs/as [1]
Disodium stearoyl capryl glutamate,34 Å,,,
Nonylphenol,,−73 % w/v NaCl,0.0007 wt %,
Sucrose distearate,34 Å,,,12.0 Å
Sucrose palmitate,23 Å,,,17.8 Å
